The target in the assay is T1, m-CTR:pcDNA (m-CTR alone) (Mus musculus, UniProt Q60755).
T1 sequence (Q60755 42-496 isoform Q60755-2 limits assumed): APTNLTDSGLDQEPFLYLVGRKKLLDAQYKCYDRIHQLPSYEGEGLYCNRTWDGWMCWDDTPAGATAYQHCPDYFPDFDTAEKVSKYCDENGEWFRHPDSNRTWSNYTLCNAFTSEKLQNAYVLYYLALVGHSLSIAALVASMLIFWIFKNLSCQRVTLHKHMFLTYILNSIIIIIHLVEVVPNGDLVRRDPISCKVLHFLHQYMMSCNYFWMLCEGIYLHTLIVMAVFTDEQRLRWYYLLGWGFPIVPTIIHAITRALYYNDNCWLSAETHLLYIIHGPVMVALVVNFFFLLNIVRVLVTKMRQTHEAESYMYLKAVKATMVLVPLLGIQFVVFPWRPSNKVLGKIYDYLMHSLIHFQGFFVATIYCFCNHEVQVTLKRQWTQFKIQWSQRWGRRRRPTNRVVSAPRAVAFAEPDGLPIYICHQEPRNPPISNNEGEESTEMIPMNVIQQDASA
Put plainly: cAMP production, agonist concentration-response, transfected Cos7 cells. Conditions: cAMP pEC50. It is filed as cell-based. Background: cAMP levels reflect the balance of adenylyl cyclase and phosphodiesterase activity.

Each structure is given as a SMILES string. Positions of bridges follow the written chain, without caps; N, C: chain ends. Residues, ends and D or L forms follow the SMILES beside them.

Turning to `CC(C)C[C@H](NC(=O)[C@H](CCCNC(=N)N)NC(=O)[C@H](Cc1c[nH]cn1)NC(=O)[C@@H](NC(=O)[C@@H](NC(=O)[C@@H]1CSSC[C@H](NC(=O)[C@@H](N)CO)C(=O)N[C@@H](CC(N)=O)C(=O)N[C@@H]([C@@H](C)O)C(=O)N[C@@H](C)C(=O)N[C@@H]([C@@H](C)O)C(=O)N1)C(C)C)[C@@H](C)O)C(=O)N[C@@H](C)C(=O)N[C@@H](CC(=O)O)C(=O)N[C@@H](CC(C)C)C(=O)N[C@@H](CC(C)C)C(=O)N[C@@H](CO)C(=O)N[C@@H](CCCNC(=N)N)C(=O)N[C@@H](CO)C(=O)NCC(=O)NCC(=O)N[C@H](C(=O)N[C@@H](CC(C)C)C(=O)N[C@@H](CCCCN)C(=O)N[C@@H](CC(=O)O)C(=O)N[C@@H](CC(N)=O)C(=O)N[C@@H](Cc1ccccc1)C(=O)N[C@H](C(=O)N1CCC[C@H]1C(=O)N[C@H](C(=O)N[C@@H](CC(=O)O)C(=O)N[C@H](C(=O)NCC(=O)N[C@@H](CO)C(=O)N[C@@H](CCC(=O)O)C(=O)N[C@@H](C)C(=O)N[C@@H](Cc1ccccc1)C(N)=O)C(C)C)[C@@H](C)O)C(C)C)C(C)C` [m-βCGRP] (H-SCNTATCVTHRLADLLSRSGGVLKDNFVPTDVGSEAF-NH2; disulfide 2-7), the “fold more potent than m/r-Amy” value is recorded as ~ 10 fold.
